Experiment: xn = mol fraction of the nth substance listed
Details: Liquid, Vibrating tube method

CCCCOCCCC [dibutyl ether] + CC(C)O
mass density [kg/m3]
Details	x1 = 0.1499	x1 = 0.3251	x1 = 0.508	x1 = 0.675	x1 = 0.8477
293.15 K, 100 kPa	780	775.7	772.8	770.6	769
293.15 K, 10000 kPa	788.3	784.1	781.2	778.9	777.3
293.15 K, 20000 kPa	795.9	791.7	788.8	786.5	784.9
293.15 K, 30000 kPa	802.7	798.5	795.7	793.4	791.8
293.15 K, 40000 kPa	809	804.8	802.1	799.9	798.3
293.15 K, 50000 kPa	814.9	810.7	808.1	805.8	804.2
293.15 K, 60000 kPa	820.4	816.3	813.6	811.4	809.7
293.15 K, 70000 kPa	825.7	821.6	818.9	816.7	815.1
293.15 K, 80000 kPa	830.7	826.6	824	821.8	820.1
293.15 K, 90000 kPa	835.4	831.3	828.7	826.5	824.8
293.15 K, 100000 kPa	840.2	836.1	833.5	831.3	829.7
293.15 K, 110000 kPa	844.3	840.3	837.7	835.5	833.9
293.15 K, 120000 kPa	848.5	844.5	841.9	839.7	838.1
293.15 K, 130000 kPa	852.5	848.5	845.9	843.7	842.1
293.15 K, 140000 kPa	856.4	852.4	849.9	847.6	846.1
313.15 K, 100 kPa	762.2	757.8	754.8	752.7	751.4
313.15 K, 10000 kPa	771.5	767.1	764.1	762	760.6
313.15 K, 20000 kPa	779.8	775.6	772.6	770.4	769
313.15 K, 30000 kPa	787.5	783.3	780.4	778.2	776.8
313.15 K, 40000 kPa	794.4	790.3	787.3	785.2	783.8
313.15 K, 50000 kPa	800.9	796.8	794	791.8	790.4
313.15 K, 60000 kPa	806.9	802.9	800.1	797.9	796.5
313.15 K, 70000 kPa	812.7	808.8	805.9	803.8	802.4
313.15 K, 80000 kPa	818	814.1	811.3	809.1	807.7
313.15 K, 90000 kPa	823.1	819.3	816.5	814.3	812.9
313.15 K, 100000 kPa	827.8	824	821.2	819	817.6
313.15 K, 110000 kPa	832.5	828.7	825.9	823.8	822.3
313.15 K, 120000 kPa	837	833.2	830.4	828.3	826.9
313.15 K, 130000 kPa	841.2	837.4	834.7	832.5	831.1
313.15 K, 140000 kPa	845.4	841.6	838.9	836.7	835.3
333.15 K, 100 kPa	743.4	739.2	736.2	734.5	733.3
333.15 K, 10000 kPa	754.1	749.9	747	745.2	744
333.15 K, 20000 kPa	763.5	759.4	756.6	754.8	753.5
333.15 K, 30000 kPa	771.9	768	765.1	763.3	762
333.15 K, 40000 kPa	779.6	775.7	772.8	771	769.7
333.15 K, 50000 kPa	786.7	782.8	780	778.1	776.8
333.15 K, 60000 kPa	793.2	789.4	786.6	784.7	783.3
333.15 K, 70000 kPa	799.2	795.5	792.7	790.8	789.4
333.15 K, 80000 kPa	805.1	801.4	798.6	796.6	795.3
333.15 K, 90000 kPa	810.8	807.1	804.3	802.4	801
333.15 K, 100000 kPa	816	812.2	809.4	807.5	806.1
333.15 K, 110000 kPa	820.8	817	814.2	812.3	810.9
333.15 K, 120000 kPa	824.9	821.2	818.4	816.5	815.1
333.15 K, 130000 kPa	829.6	826	823.1	821.2	819.8
333.15 K, 140000 kPa	833.9	830.2	827.4	825.5	824.1
353.15 K, 100 kPa	722.4	718	715.8	714.6	714.2
353.15 K, 10000 kPa	734.9	730.6	728.3	727	726.5
353.15 K, 20000 kPa	745.7	741.5	739.2	737.8	737.2
353.15 K, 30000 kPa	755.3	751.1	748.8	747.3	746.7
353.15 K, 40000 kPa	763.8	759.7	757.4	755.8	755.2
353.15 K, 50000 kPa	771.6	767.5	765.2	763.7	762.9
353.15 K, 60000 kPa	778.6	774.6	772.4	770.7	770
353.15 K, 70000 kPa	785.3	781.3	779	777.4	776.6
353.15 K, 80000 kPa	791.6	787.6	785.4	783.7	782.9
353.15 K, 90000 kPa	797.4	793.5	791.2	789.6	788.7
353.15 K, 100000 kPa	802.8	798.9	796.7	795	794.1
353.15 K, 110000 kPa	808	804.1	801.9	800.2	799.3
353.15 K, 120000 kPa	813	809.1	807	805.2	804.3
353.15 K, 130000 kPa	817.8	813.9	811.7	809.9	809
353.15 K, 140000 kPa	822.3	818.5	816.3	814.5	813.6
